## Yeast mating assay B: variants of the scFv Ab-14

Reference: Li et al. 2023, doi:10.1038/s41467-023-39022-2. File: FLAb, binding data.

Target: peptide PDVDLGDISGINAS, taken from heptad repeat 2 (HR2) of SARS-CoV-2 spike.

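The starting antibody came from a phage panning campaign against this peptide. Designed CDR sequences, proposed from the first random library and measured here. Their group label is 14L_En_Gibbs (En: ensemble of fine-tuned language models; Gibbs: Gibbs sampling). AlphaSeq pools MATa yeast showing the antibodies with MATalpha yeast showing the peptide. After mating in shaken culture at 30 °C for 16 h, diploids were selected and their barcode pairs sequenced. Each replicate has its own calibration line, from reference interactions of the BCL2 family. The assay was run in six technical replicates.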

Ab-14 is the parent antibody, in scFv form: VH, then a 15-residue (Gly4Ser)3 linker, then VL. The heavy chain is unchanged in all variants.
VH: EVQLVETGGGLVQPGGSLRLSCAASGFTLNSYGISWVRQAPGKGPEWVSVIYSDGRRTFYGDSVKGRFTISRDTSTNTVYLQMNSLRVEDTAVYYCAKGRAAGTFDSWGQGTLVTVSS
VL: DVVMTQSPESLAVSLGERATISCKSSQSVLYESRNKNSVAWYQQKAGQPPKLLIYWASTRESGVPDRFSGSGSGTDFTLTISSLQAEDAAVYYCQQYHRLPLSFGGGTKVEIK

The parent's light chain CDRs are KSSQSVLYESRNKNSVA, WASTRES, QQYHRLPLS; each variant's own CDRs replace them letter for letter.
Scale: log10 of Kd in nM, estimated from mating counts; low values are strong binders.
"ND" marks a missing value. The strain was present, yet no cells mated with the target were sequenced in that replicate, which points to weak or no binding.
The parent sequence was in this pool as ten entries: three were never detected, three once, and four in most replicates, with averages from 0.34 to 2.37.
The authors averaged sequences with at least three values out of six and counted those with two or fewer as poor binders.
Background: pairings of all light chain designs with three empty control strains gave a value in 4% of cases (median 2.64, 5th percentile 1.59). Values in that range, when seen in few replicates, are hard to tell from nonspecific mating. The control count says in how many pairings with the empty strains this scFv gave a signal, with their mean in brackets.
Values of this round are not directly comparable with the first-round values of the same sequences.

CDR-L1,CDR-L2,CDR-L3,"replicates, log10 nM",empty controls
QMQLSQREGNQHQNSIA,GESEADM,QHYARLPLT,ND / ND / 2.01 / ND / ND / ND,0/18
KISINQSNYGGMRSAIA,NTNLARM,QQYFHLPLM,1.01 / 0.86 / 0.72 / 2.30 / 1.54 / 0.89,1/18 (2.45)
KLQWYNTEASMSARNIA,DGAQRLN,QQYMRLPLM,-0.01 / -0.19 / -0.42 / -0.30 / -0.39 / -0.14,0/18
NFGQKMALYTGQRQQIA,DSTVRAD,QQYSRLPLT,0.44 / 0.35 / 0.22 / 0.15 / 0.11 / 0.40,0/18
HFEMFDIMENMYASSIA,NAHCLVE,QQYGRLPLT,3.10 / 1.49 / 1.46 / 1.92 / 1.65 / 1.93,1/18 (2.84)
KISFWDYRGSQWHNNIA,EGSQRAE,QQYSRLPLN,0.48 / 0.68 / 0.66 / 1.57 / 0.21 / 0.66,0/18
RLWQQMYGFNIHANAIA,EGKERYW,QQYARLPLS,ND / ND / 2.03 / 2.59 / 2.27 / 1.66,0/18
KLRWDDMSHFNTRSNVA,DMTMRVH,QQYNRLPLD,0.54 / 0.43 / 0.24 / 0.34 / 0.17 / 0.85,1/18 (2.47)
KLDHYKLGENGMRGSIA,NMTIRDY,QQYFHLPLF,1.45 / 1.30 / 1.35 / 0.83 / 1.33 / 1.03,0/18
KIEISNSWSLRGTKAVA,QASTRAH,QQYQRLPLL,0.74 / 1.47 / 1.26 / 1.30 / 1.42 / 0.98,2/18 (2.92)
KLYERGEGSSKVDRNIA,EMSTRCE,QSYQRLPLS,0.88 / 0.72 / 0.94 / 0.24 / 1.01 / 0.71,0/18
RLLYQDLAQTGKLQSVA,DATITQQ,QQYHQLPLM,0.38 / 0.38 / 0.08 / 0.13 / -0.21 / 0.43,2/18 (2.78)
HIQDAEGGLSSQWNSVA,STEERSD,QQYHRLPLS,0.89 / 1.99 / 0.64 / 0.63 / 1.15 / 0.92,0/18
RADAYPPIQGNNIDSVA,ENAIRLD,QQYARLPLS,0.96 / 1.34 / 0.96 / 0.56 / 0.67 / 1.00,1/18 (1.89)
KIRVHHLMFSQNESNIA,GMSVRSR,QQYYHLPLT,ND / ND / ND / 2.50 / ND / 2.70,1/18 (3.20)
RFDMAMPYANSNINSIA,DKAIQAD,QQYNRLPLS,0.74 / 0.73 / 0.87 / 0.57 / 0.57 / 0.90,0/18
NVSIEHYEGTRYWEAVA,DHSQRNN,QQYDQLPLS,0.62 / 0.82 / 1.57 / 0.91 / 1.19 / 1.60,0/18
KLMNSLDAFHSWEDNIA,ETEIKVA,QQYYHLPLT,1.88 / 1.15 / 1.18 / 1.52 / 1.95 / 1.76,0/18
RIQMGDFPGKTARNNIA,DGEEGYR,QQYVRLPLS,0.47 / 0.32 / 0.32 / 0.33 / 0.17 / 0.50,1/18 (2.59)
YVSIQAAQDRNQQQSIA,GVDYREK,QQYYHLPLS,2.19 / 1.36 / 1.60 / 1.44 / 1.53 / 1.31,0/18
QLELVQSGDTISENSVA,HAEVSGR,QQYSQLPLI,ND / ND / ND / ND / ND / ND,0/18
KLNQDPVLKTNINNSVA,DHSEVFQ,QQYAHLPLQ,ND / 1.38 / 1.78 / 2.25 / 1.23 / 2.99,0/18
RIMYEYDKNVDKYNAVA,QAHIRAQ,QFYNRLPLS,ND / ND / ND / 2.55 / 2.57 / 3.96,2/18 (3.30)
MLTMFANEPAGKSSNIA,DTNQLTT,QQYQRLPFM,0.05 / -0.14 / 0.00 / 0.05 / 0.27 / 0.18,3/18 (2.29)
QIQFLDVQYGVKEQAIA,EENQRDQ,QHYFRLPLS,ND / ND / ND / ND / ND / ND,0/18
HITDLMYNNNEGMQNIA,DKNISVM,QQYFRLPLD,2.42 / 1.63 / 1.39 / 1.79 / 1.07 / 1.36,0/18
SVQYFPEESLRHASAIA,DVNIKVM,QQYSRLPLA,0.35 / 0.32 / 0.04 / 0.25 / 0.06 / 0.21,0/18
RIFYGQERDIKHESSIA,NGMARVK,QQYHRLPLS,0.80 / 0.75 / 0.74 / 0.57 / 0.60 / 1.01,2/18 (2.72)
KLSLVLGVSKQSEKNIA,NMRLKVA,QQYDRLPLT,0.98 / 1.34 / 1.08 / 0.98 / 1.58 / 1.22,0/18
MVLKEDFQELAAKNAVA,NASEKET,QHYNRLPLV,1.52 / 1.17 / 1.18 / 1.09 / 1.38 / 1.35,1/18 (2.92)
ALAQGIYEPVRKSNNIA,EASHVGD,QQYERLPLE,1.18 / 1.32 / 0.87 / 1.13 / 1.17 / 1.45,0/18
MLTMFANENAGKSSNIA,DTNQLNT,QQYQRLPFM,0.49 / 0.15 / 0.42 / 0.15 / 0.24 / 0.45,0/18
QLATEVHDNAKLRNSIA,ENELRAM,QQYFMLPLS,0.60 / 0.52 / 0.38 / 0.21 / 0.30 / 0.34,2/18 (3.56)
TLVDWIQGGTWAKKNVA,DEQTRMN,QQYYRLPLS,1.56 / 0.45 / 0.98 / 0.88 / 1.04 / 1.34,0/18